According to PubChem BioAssay (Tox21):
Only a part is listed here, and it is no random draw. Results filed as inconclusive are left out. Where a call stands in place of a potency, no number is given. Activity calls are given as the source filed them. Calls come from the whole dose curve.

By UniProt entry, the sequences of proteins in these tests, tags left out.
UniProt P28223, whole entry: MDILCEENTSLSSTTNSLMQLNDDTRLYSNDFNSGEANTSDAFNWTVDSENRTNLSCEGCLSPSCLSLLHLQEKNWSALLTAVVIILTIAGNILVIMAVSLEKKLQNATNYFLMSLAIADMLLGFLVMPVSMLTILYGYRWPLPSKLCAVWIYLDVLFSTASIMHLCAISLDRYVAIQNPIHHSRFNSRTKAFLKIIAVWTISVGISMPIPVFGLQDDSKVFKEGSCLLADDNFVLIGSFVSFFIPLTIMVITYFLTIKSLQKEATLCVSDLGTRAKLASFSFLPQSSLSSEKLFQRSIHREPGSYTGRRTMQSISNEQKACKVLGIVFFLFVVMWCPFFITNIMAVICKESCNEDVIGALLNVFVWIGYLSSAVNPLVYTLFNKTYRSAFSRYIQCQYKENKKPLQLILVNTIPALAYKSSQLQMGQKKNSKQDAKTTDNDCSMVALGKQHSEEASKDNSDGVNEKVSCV

Molecular target: 5-hydroxytryptamine receptor 2A (Homo sapiens) (UniProt P28223)
Assay: 5-hydroxytryptamine receptor 2A (HTR2A) small molecule antagonists, cell-based qHTS assay (AID 1963586); note: nearly all actives have a fitted effect of over 45% in size
Conditions: HTR2A-CHO cells, DOI-induced calcium flux, fluorescence; series mostly up to 61.5 µM
Excerpt: National Center for Advancing Translational Sciences [NCATS]
Division of Preclinical Innovation [DPI]
U.S. Environmental Protection Agency [EPA]
National Institutes of Environmental Health Sciences [NIEHS]
National Toxicology Program [NTP]
U.S. Food and Drug Administration [FDA]
The HTR2A receptor is a subtype of the 5-HT2 receptor that belongs to the serotonin receptor family and is a G protein-coupled receptor (GPCR). The HTR2A-CHO cell line stably expressing human 5-hydroxytryptamine receptor 2A (HTR2A) can be used for screening antagonists of interactions between 5-HT2 and its ligands. The HTR2A-CHO calcium flux assay is a homogeneous fluorescence-based assay for detecting the intracellular calcium level using FDSS kinetic plate reader system.
Tox21 Assay Protocol Summary:
HTR2A-CHO cells were dispensed at 2000 cells/3uL/well in 1536-well black-clear bottom plates using a Multidrop Dispenser. After the assay plates were incubated at a 37 C/5% CO2 incubator for 18 h, 3 uL of Dye Loading Buffer was transferred to the assay plate by a Flying Reagent Dispenser. The assay plates were incubated at 37 C for 1h. For antagonist mode, 23 nL of compounds dissolved in DMSO, positive controls or DMSO only was transferred to the assay plate by a pin tool. After 5 min incubation at room temperature, 1.5 uL of 4-Iodo-2,5-dimethoxy-alpha-methylbenzeneethanamine hydrochloride (DOI) at 4nM was added to each well. The fluorescence intensity in the plates was measured using FDSS 7000EX kinetic plate reader for 3 min at 1 sec intervals.
Potency is the fitted concentration of half-maximal effect.

| SMILES | Potency |
| --- | --- |
| Cc1c([N+](=O)[O-])cccc1[N+](=O)[O-] | inactive |
| OCCSCCO | inactive |
| O=[N+]([O-])[O-].[NH4+] | inactive |
| CCN(CC)CCCl | inactive |
| O=[N+]([O-])c1cccc([N+](=O)[O-])c1 | inactive |
| C/C1=C2N=C(/C=C3N=C(/C(C)=C4\[N-][C@@](C)([C@@H]5N=C1[C@](C)(CCC(=O)NC[C@@H](C)OP(=O)([O-])O[C@H]1[C@@H](O)[C@@H](n6cnc7cc(C)c(C)cc76)O[C@@H]1CO)[C@H]5CC(N)=O)[C@@](C)(CC(N)=O)[C@@H]4CCC(N)=O)[C@@](C)(CC(N)=O)[C@@H]\3CCC(N)=O)C(C)(C)[C@@H]/2CCC(N)=O.[C-]#N.[Co+3] | inactive |
| O=[N+]([O-])OCC(CO[N+](=O)[O-])(CO[N+](=O)[O-])CO[N+](=O)[O-] | inactive |
| COP(C)(=O)OC | inactive |
| CC(C)N(CCO)C(C)C | inactive |
| CN(C)CCCl | inactive |
| Cc1ccc([N+](=O)[O-])cc1[N+](=O)[O-] | inactive |
| N=C(N)N[N+](=O)[O-] | inactive |
| [NH4+].[O-][Cl+3]([O-])([O-])[O-] | inactive |
| CCOP(=O)(CC)OCC | inactive |
| Cc1ccc([N+](=O)[O-])c([N+](=O)[O-])c1 | inactive |
| CC(C)OP(C)(=O)OC(C)C | inactive |
| N#CBr | inactive |
| Nc1cc([N+](=O)[O-])cc([N+](=O)[O-])c1O | inactive |
| CP(=O)(O)OCCC[Si](O)(O)O | inactive |
| CCOP(=O)(CC)Oc1ccc([N+](=O)[O-])cc1 (configuration not stated) | inactive |
| Cc1cccc([N+](=O)[O-])c1[N+](=O)[O-] | active: 11.2 µM |
| COc1ccc([N+](=O)[O-])cc1[N+](=O)[O-] | inactive |
